Protein sequences, listed by entry. Tags and fused reporters are not part of them.
UniProt P23975, whole entry: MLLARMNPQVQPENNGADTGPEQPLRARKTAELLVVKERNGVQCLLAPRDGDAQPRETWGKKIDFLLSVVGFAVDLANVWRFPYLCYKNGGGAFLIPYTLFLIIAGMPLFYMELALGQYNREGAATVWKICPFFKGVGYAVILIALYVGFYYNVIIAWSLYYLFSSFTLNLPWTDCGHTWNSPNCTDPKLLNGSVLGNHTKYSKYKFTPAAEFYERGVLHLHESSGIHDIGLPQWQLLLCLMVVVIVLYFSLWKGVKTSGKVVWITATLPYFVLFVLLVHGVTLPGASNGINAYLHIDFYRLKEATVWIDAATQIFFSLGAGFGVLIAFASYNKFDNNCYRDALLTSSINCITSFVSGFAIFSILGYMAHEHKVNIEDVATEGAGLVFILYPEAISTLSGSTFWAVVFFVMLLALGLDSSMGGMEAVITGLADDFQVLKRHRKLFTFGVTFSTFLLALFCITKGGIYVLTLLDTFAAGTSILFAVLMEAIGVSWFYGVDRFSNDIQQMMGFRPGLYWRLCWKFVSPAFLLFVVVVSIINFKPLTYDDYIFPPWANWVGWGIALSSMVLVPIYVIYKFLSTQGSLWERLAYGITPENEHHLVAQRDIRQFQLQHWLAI

In patent publication US7507717B2 (Xenome Ltd., priority 2002, dated 2009):

biological target: T1, human noradrenaline transporter (hNET) (Homo sapiens, UniProt P23975); experiment: biochemical; type: binding; details: Av IC50 Displacement of 3H-nisoxetine from hNET
T1 construct: expressed in transfected cells; host or cells: COS-7 cells (ATCC), transient transfection with metafectene

Structure (SMILES) | IC50
COc1ccc(C[C@@H]2NC(=O)CNC(=O)[C@@H]3CSSC[C@H](NC(=O)[C@H](CC(C)C)NC(=O)[C@H](CCCCN)NC2=O)C(=O)N[C@@H](Cc2c[nH]cn2)C(=O)N2C[C@H](O)C[C@H]2C(=O)N[C@H](C(N)=O)CSSC[C@H](NC(=O)[C@@H](NC(=O)CNC(=O)[C@H](CCCCN)NC(=O)[C@@H](N)Cc2c[nH]c4ccccc24)C(C)C)C(=O)N3)cc1 [compound 21] | 39.8 nM
COc1ccc(C[C@@H]2NC(=O)CNC(=O)[C@@H]3CSSC[C@H](NC(=O)[C@H](CC(C)C)NC(=O)[C@H](CCCCN)NC2=O)C(=O)N[C@@H](CCCNC(=N)N)C(=O)N[C@@H](C)C(=O)N[C@H](C(N)=O)CSSC[C@H](NC(=O)[C@H](CC(C)C)NC(=O)CNC(=O)[C@H](CCCNC(=N)N)NC(=O)[C@H](N)Cc2c[nH]c4ccccc24)C(=O)N3)cc1 [compound 24] | 44.7 nM
COc1ccc(C[C@@H]2NC(=O)CNC(=O)[C@@H]3CSSC[C@H](NC(=O)[C@H](CC(C)C)NC(=O)[C@H](CCCCN)NC2=O)C(=O)N[C@@H](Cc2c[nH]cn2)C(=O)N2C[C@H](O)C[C@H]2C(=O)N[C@H](C(N)=O)CSSC[C@H](NC(=O)[C@@H](NC(=O)CNC(=O)[C@H](CCCNC(=N)N)NC(=O)[C@@H](N)Cc2c[nH]c4ccccc24)C(C)C)C(=O)N3)cc1 [compound 25] | 47.9 nM
CC(C)C[C@H](NC(=O)CNC(=O)[C@H](CCCNC(=N)N)NC(=O)[C@@H](N)Cc1c[nH]c2ccccc12)C(=O)N[C@H]1CSSC[C@@H](C(N)=O)NC(=O)[C@@H]2C[C@@H](O)CN2C(=O)[C@H](Cc2c[nH]cn2)NC(=O)[C@@H]2CSSC[C@H](NC1=O)C(=O)NCC(=O)N[C@@H](Cc1ccc(O)cc1)C(=O)N[C@@H](CCCCN)C(=O)N[C@@H](CC(C)C)C(=O)N2 [compound 26] | 50.1 nM
COc1ccc(C[C@@H]2NC(=O)CNC(=O)[C@@H]3CSSC[C@H](NC(=O)[C@H](CC(C)C)NC(=O)[C@H](CCCCN)NC2=O)C(=O)N[C@@H](CCCNC(=N)N)C(=O)N[C@@H](C)C(=O)N[C@H](C(N)=O)CSSC[C@H](NC(=O)[C@@H](NC(=O)CNC(=O)[C@H](CCCNC(=N)N)NC(=O)[C@@H](N)Cc2c[nH]c4ccccc24)C(C)C)C(=O)N3)cc1 [compound 29] | 74.1 nM
CC(C)C[C@@H]1NC(=O)[C@H](CCCCN)NC(=O)[C@H](Cc2ccc(O)cc2)NC(=O)CNC(=O)[C@@H]2CSSC[C@H](NC1=O)C(=O)N[C@@H](Cc1c[nH]cn1)C(=O)N1C[C@H](O)C[C@H]1C(=O)N[C@H](C(N)=O)CSSC[C@H](NC(=O)[C@@H](NC(=O)CNC(=O)[C@H](CCCNC(=N)N)NC(=O)[C@@H](N)Cc1c[nH]c3ccccc13)C(C)C)C(=O)N2 [compound 30] | 85.1 nM
COc1ccc(C[C@@H]2NC(=O)CNC(=O)[C@@H]3CSSC[C@H](NC(=O)[C@H](CC(C)C)NC(=O)[C@H](CCCCN)NC2=O)C(=O)N[C@@H](CCCNC(=N)N)C(=O)N[C@@H](Cc2ccc(O)cc2)C(=O)N[C@H](C(N)=O)CSSC[C@H](NC(=O)[C@H](CC(C)C)NC(=O)CNC(=O)[C@@H](N)Cc2c[nH]c4ccccc24)C(=O)N3)cc1 [compound 31] | 87.1 nM
CC(C)C[C@@H]1NC(=O)[C@H](CCCCN)NC(=O)[C@H](Cc2ccc(O)cc2)NC(=O)CNC(=O)[C@@H]2CSSC[C@H](NC1=O)C(=O)N[C@@H](CCCNC(=N)N)C(=O)N1C[C@H](O)C[C@H]1C(=O)N[C@H](C(N)=O)CSSC[C@H](NC(=O)[C@@H](NC(=O)CNC(=O)[C@H](CC(N)=O)NC(=O)[C@@H](N)Cc1c[nH]c3ccccc13)C(C)C)C(=O)N2 [compound 33] | 87.1 nM
COc1ccc(C[C@@H]2NC(=O)CNC(=O)[C@@H]3CSSC[C@H](NC(=O)[C@H](CC(C)C)NC(=O)[C@H](CCCCN)NC2=O)C(=O)N[C@@H](CCCNC(=N)N)C(=O)N2C[C@H](O)C[C@H]2C(=O)N[C@H](C(N)=O)CSSC[C@H](NC(=O)[C@H](CC(C)C)NC(=O)CNC(=O)[C@H](CCCNC(=N)N)NC(=O)[C@H](Cc2ccc(O)cc2)NC(C)=O)C(=O)N3)cc1 [compound 34] | 89.1 nM
COc1ccc(C[C@@H]2NC(=O)CNC(=O)[C@@H]3CSSC[C@H](NC(=O)[C@H](CC(C)C)NC(=O)[C@H](CCCCN)NC2=O)C(=O)N[C@@H](CCCNC(=N)N)C(=O)N2C[C@H](O)C[C@H]2C(=O)N[C@H](C(N)=O)CSSC[C@H](NC(=O)[C@H](CC(C)C)NC(=O)CNC(=O)[C@@H](N)Cc2c[nH]c4ccccc24)C(=O)N3)cc1 [compound 35] | 95.5 nM
COc1ccc(C[C@@H]2NC(=O)CNC(=O)[C@@H]3CSSC[C@H](NC(=O)[C@H](CC(C)C)NC(=O)[C@H](CCCCN)NC2=O)C(=O)N[C@@H](CCCNC(=N)N)C(=O)N[C@@H](C)C(=O)N[C@H](C(N)=O)CSSC[C@H](NC(=O)[C@H](CC(C)C)NC(=O)CNC(=O)[C@H](CCCNC(=N)N)NC(=O)[C@@H](N)Cc2c[nH]c4ccccc24)C(=O)N3)cc1 [compound 37] | 100 nM
COc1ccc(C[C@@H]2NC(=O)CNC(=O)[C@@H]3CSSC[C@H](NC(=O)[C@H](CC(C)C)NC(=O)[C@H](CCCCN)NC2=O)C(=O)N[C@@H](Cc2c[nH]cn2)C(=O)N[C@@H](C)C(=O)N[C@H](C(N)=O)CSSC[C@H](NC(=O)[C@@H](NC(=O)CNC(=O)[C@H](CCCNC(=N)N)NC(=O)[C@@H](N)Cc2c[nH]c4ccccc24)C(C)C)C(=O)N3)cc1 [compound 40] | 105 nM
CC(C)C[C@@H]1NC(=O)[C@H](CCCCN)NC(=O)[C@H](Cc2ccc(O)cc2)NC(=O)CNC(=O)[C@@H]2CSSC[C@H](NC1=O)C(=O)N[C@@H](Cc1c[nH]cn1)C(=O)N1C[C@H](O)C[C@H]1C(=O)N[C@H](C(=O)N[C@@H](Cc1ccc(O)cc1)C(N)=O)CSSC[C@H](NC(=O)[C@@H](NC(=O)CNC(=O)[C@H](CCCNC(=N)N)NC(=O)[C@@H](N)Cc1c[nH]c3ccccc13)C(C)C)C(=O)N2 [compound 43] | 123 nM
COc1ccc(C[C@@H]2NC(=O)CNC(=O)[C@@H]3CSSC[C@H](NC(=O)[C@H](CC(C)C)NC(=O)[C@H](CCCCN)NC2=O)C(=O)N[C@@H](CCCNC(=N)N)C(=O)N2C[C@H](O)C[C@H]2C(=O)N[C@H](C(=O)N[C@@H](Cc2ccc(O)cc2)C(N)=O)CSSC[C@H](NC(=O)[C@H](CC(C)C)NC(=O)CNC(=O)[C@@H](N)Cc2c[nH]c4ccccc24)C(=O)N3)cc1 [compound 44] | 129 nM
COc1ccc(C[C@@H]2NC(=O)CNC(=O)[C@@H]3CSSC[C@H](NC(=O)[C@H](CC(C)C)NC(=O)[C@H](CCCCN)NC2=O)C(=O)N[C@@H](Cc2c[nH]cn2)C(=O)N2C[C@H](O)C[C@H]2C(=O)N[C@H](C(N)=O)CSSC[C@H](NC(=O)[C@@H](NC(=O)CNC(=O)[C@H](CC(N)=O)NC(=O)[C@@H](N)Cc2c[nH]c4ccccc24)C(C)C)C(=O)N3)cc1 [compound 46] | 132 nM
CC(C)CC[C@@H]1NC(=O)[C@H](CCCCN)NC(=O)[C@H](Cc2ccc(O)cc2)NC(=O)CNC(=O)[C@@H]2CSSC[C@H](NC1=O)C(=O)N[C@@H](Cc1c[nH]cn1)C(=O)N1C[C@H](O)C[C@H]1C(=O)N[C@H](C(N)=O)CSSC[C@H](NC(=O)[C@@H](NC(=O)CNC(=O)C[C@@H](N)CCCCN)C(C)C)C(=O)N2 [compound 49] | 135 nM
CCCC[C@H](NC(=O)CNC(=O)[C@H](CC(N)=O)NC(=O)[C@@H](N)Cc1ccc(O)cc1)C(=O)N[C@H]1CSSC[C@@H](C(N)=O)NC(=O)[C@@H]2CCCN2C(=O)[C@H](Cc2c[nH]cn2)NC(=O)[C@@H]2CSSC[C@H](NC1=O)C(=O)NCC(=O)N[C@@H](Cc1ccc(O)cc1)C(=O)N[C@@H](CCCCN)C(=O)N[C@@H](CC(C)C)C(=O)N2 [compound 50] | 138 nM
